Assays:
human GLP-1 receptor = molecular target: T1, human GLP-1 receptor (Homo sapiens, UniProt P43220); experiment: cAMP response (HTRF) of HEK-293 cells stably expressing human GLP-1 receptor; format: cell-based; conditions: Table 5; cAMP, HEK-293; read-out: EC50 hGLP-1R
T1 construct: expressed in transfected cells; host or cells: HEK-293

Amino acid sequences for entries named in this document (tags omitted). Residues count along the entry.
UniProt P43220, 24-463: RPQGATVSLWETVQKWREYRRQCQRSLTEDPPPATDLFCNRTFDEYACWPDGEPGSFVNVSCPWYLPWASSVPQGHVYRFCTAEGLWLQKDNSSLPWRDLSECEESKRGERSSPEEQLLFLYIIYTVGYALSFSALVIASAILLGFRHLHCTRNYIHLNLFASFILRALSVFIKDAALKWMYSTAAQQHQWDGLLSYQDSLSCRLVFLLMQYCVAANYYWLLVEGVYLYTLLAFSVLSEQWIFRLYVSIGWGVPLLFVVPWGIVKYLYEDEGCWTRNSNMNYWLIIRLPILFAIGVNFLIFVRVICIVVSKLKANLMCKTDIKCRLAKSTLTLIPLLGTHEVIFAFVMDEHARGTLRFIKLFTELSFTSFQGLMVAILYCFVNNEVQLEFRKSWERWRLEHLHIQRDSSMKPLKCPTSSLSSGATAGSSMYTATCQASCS
UniProt P47871, 26-477: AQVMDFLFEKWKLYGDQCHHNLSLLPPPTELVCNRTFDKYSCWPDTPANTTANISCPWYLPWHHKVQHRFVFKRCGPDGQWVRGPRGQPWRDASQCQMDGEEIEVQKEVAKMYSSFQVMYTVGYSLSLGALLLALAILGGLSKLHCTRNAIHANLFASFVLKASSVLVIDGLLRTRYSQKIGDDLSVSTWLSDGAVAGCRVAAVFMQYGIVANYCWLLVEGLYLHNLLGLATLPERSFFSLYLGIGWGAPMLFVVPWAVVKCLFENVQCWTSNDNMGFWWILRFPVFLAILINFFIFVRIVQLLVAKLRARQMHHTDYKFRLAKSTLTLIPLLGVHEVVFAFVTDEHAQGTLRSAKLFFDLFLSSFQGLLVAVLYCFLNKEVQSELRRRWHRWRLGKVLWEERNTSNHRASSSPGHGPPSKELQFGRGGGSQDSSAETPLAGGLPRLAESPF

human glucagon receptor = molecular target: T2, human glucagon receptor (Homo sapiens, UniProt P47871); experiment: cAMP response (HTRF) of HEK-293 cells stably expressing human glucagon receptor; format: cell-based; conditions: Table 5; cAMP, HEK-293; read-out: EC50 hGlucagon-R
T2 construct: expressed in transfected cells; host or cells: HEK-293

Structure (SMILES)	EC50 (human GLP-1 receptor)	EC50 (human glucagon receptor)
CCCCCCCCCCCCCCCC(=O)N[C@@H](CCC(=O)NCCCC[C@H](NC(=O)[C@H](CCC(N)=O)NC(=O)[C@H](CCCCN)NC(=O)[C@H](CO)NC(=O)[C@H](CC(C)C)NC(=O)[C@H](CC(=O)O)NC(=O)[C@H](CO)NC(=O)[C@@H](NC(=O)[C@H](Cc1ccccc1)NC(=O)[C@@H](NC(=O)CNC(=O)[C@H](CCC(N)=O)NC(=O)C(C)(C)NC(=O)[C@@H](N)Cc1c[nH]cn1)[C@@H](C)O)[C@@H](C)O)C(=O)N[C@@H](CCC(=O)O)C(=O)N[C@@H](CO)C(=O)NC(C)(C)C(=O)N[C@@H](C)C(=O)N[C@@H](C)C(=O)N[C@@H](CCC(N)=O)C(=O)N[C@@H](CC(=O)O)C(=O)N[C@@H](Cc1ccccc1)C(=O)N[C@H](C(=O)N[C@@H](CCC(=O)O)C(=O)N[C@@H](Cc1c[nH]c2ccccc12)C(=O)N[C@@H](CC(C)C)C(=O)N[C@@H](CCCCN)C(=O)N[C@@H](C)C(=O)NCC(=O)NCC(=O)N1CCC[C@H]1C(=O)N[C@@H](CO)C(=O)N[C@@H](CO)C(=O)NCC(=O)N[C@@H](C)C(=O)N1CCC[C@H]1C(=O)N1CCC[C@H]1C(=O)N1CCC[C@H]1C(=O)N[C@@H](CO)C(N)=O)[C@@H](C)CC)C(=O)O [compound 13]	0.0031 nM	0.281 nM
CCCCCCCCCCCCCCCC(=O)N[C@@H](CCC(=O)NCCCC[C@H](NC(=O)[C@H](CCC(N)=O)NC(=O)[C@H](CCCCN)NC(=O)[C@H](CO)NC(=O)[C@H](CC(C)C)NC(=O)[C@H](CC(=O)O)NC(=O)[C@H](CO)NC(=O)[C@@H](NC(=O)[C@H](Cc1ccccc1)NC(=O)[C@@H](NC(=O)CNC(=O)[C@H](CCC(N)=O)NC(=O)[C@@H](CO)NC(=O)[C@@H](N)Cc1c[nH]cn1)[C@@H](C)O)[C@@H](C)O)C(=O)N[C@@H](CCC(=O)O)C(=O)N[C@@H](CO)C(=O)NC(C)(C)C(=O)N[C@@H](C)C(=O)N[C@@H](C)C(=O)N[C@@H](CCC(N)=O)C(=O)N[C@@H](CC(=O)O)C(=O)N[C@@H](Cc1ccccc1)C(=O)N[C@H](C(=O)N[C@@H](CCC(=O)O)C(=O)N[C@@H](Cc1c[nH]c2ccccc12)C(=O)N[C@@H](CC(C)C)C(=O)N[C@@H](CCCCN)C(=O)N[C@@H](C)C(=O)NCC(=O)NCC(=O)N1CCC[C@H]1C(=O)N[C@@H](CO)C(=O)N[C@@H](CO)C(=O)NCC(=O)N[C@@H](C)C(=O)N1CCC[C@H]1C(=O)N1CCC[C@H]1C(=O)N1CCC[C@H]1C(=O)N[C@@H](CO)C(N)=O)[C@@H](C)CC)C(=O)O [compound 14]	0.0046 nM	0.0947 nM
CCCCCCCCCCCCCCCC(=O)N[C@@H](CCC(=O)NCCCC[C@H](NC(=O)[C@H](CCC(N)=O)NC(=O)[C@H](CCCCN)NC(=O)[C@H](CO)NC(=O)[C@H](CC(C)C)NC(=O)[C@H](CC(=O)O)NC(=O)[C@H](CO)NC(=O)[C@@H](NC(=O)[C@H](Cc1ccccc1)NC(=O)[C@@H](NC(=O)CNC(=O)[C@H](CCC(N)=O)NC(=O)[C@@H](CO)NC(=O)[C@@H](N)Cc1c[nH]cn1)[C@@H](C)O)[C@@H](C)O)C(=O)N[C@@H](CCC(=O)O)C(=O)N[C@@H](CO)C(=O)NC(C)(C)C(=O)N[C@@H](C)C(=O)N[C@@H](C)C(=O)N[C@@H](CCC(N)=O)C(=O)N[C@@H](CC(C)C)C(=O)N[C@@H](Cc1ccccc1)C(=O)N[C@H](C(=O)N[C@@H](CCC(=O)O)C(=O)N[C@@H](Cc1c[nH]c2ccccc12)C(=O)N[C@@H](CC(C)C)C(=O)N[C@@H](CCCCN)C(=O)N[C@@H](C)C(=O)NCC(=O)NCC(=O)N1CCC[C@H]1C(=O)N[C@@H](CO)C(=O)N[C@@H](CO)C(=O)NCC(=O)N[C@@H](C)C(=O)N1CCC[C@H]1C(=O)N1CCC[C@H]1C(=O)N1CCC[C@H]1C(=O)N[C@@H](CO)C(N)=O)[C@@H](C)CC)C(=O)O [compound 15]	0.0066 nM	0.176 nM
CCCCCCCCCCCCCCCC(=O)N[C@@H](CCC(=O)NCCCC[C@H](NC(=O)[C@H](CCC(N)=O)NC(=O)[C@H](CCCCN)NC(=O)[C@H](CO)NC(=O)[C@H](CC(C)C)NC(=O)[C@H](CC(=O)O)NC(=O)[C@H](CO)NC(=O)[C@@H](NC(=O)[C@H](Cc1ccccc1)NC(=O)[C@@H](NC(=O)CNC(=O)[C@H](CCC(N)=O)NC(=O)[C@@H](CO)NC(=O)[C@@H](N)Cc1c[nH]cn1)[C@@H](C)O)[C@@H](C)O)C(=O)N[C@@H](CCC(=O)O)C(=O)N[C@@H](CCC(=O)O)C(=O)N[C@@H](CCC(=O)O)C(=O)N[C@@H](C)C(=O)N[C@@H](C)C(=O)N[C@@H](CCC(N)=O)C(=O)N[C@@H](CC(=O)O)C(=O)N[C@@H](Cc1ccccc1)C(=O)N[C@H](C(=O)N[C@@H](CCC(=O)O)C(=O)N[C@@H](Cc1c[nH]c2ccccc12)C(=O)N[C@@H](CC(C)C)C(=O)N[C@@H](CCCCN)C(=O)N[C@@H](C)C(=O)NCC(=O)NCC(=O)N1CCC[C@H]1C(=O)N[C@@H](CO)C(=O)N[C@@H](CO)C(=O)NCC(=O)N[C@@H](C)C(=O)N1CCC[C@H]1C(=O)N1CCC[C@H]1C(=O)N1CCC[C@H]1C(=O)N[C@@H](CO)C(N)=O)[C@@H](C)CC)C(=O)O [compound 16]	0.0028 nM	0.117 nM
CCCCCCCCCCCCCCCC(=O)N[C@@H](CCC(=O)NCCCC[C@H](NC(=O)[C@H](CCC(N)=O)NC(=O)[C@H](CCCCN)NC(=O)[C@H](CO)NC(=O)[C@H](CC(C)C)NC(=O)[C@H](CC(=O)O)NC(=O)[C@H](CO)NC(=O)[C@@H](NC(=O)[C@H](Cc1ccccc1)NC(=O)[C@@H](NC(=O)CNC(=O)[C@H](CCC(N)=O)NC(=O)[C@@H](CO)NC(=O)[C@@H](N)Cc1c[nH]cn1)[C@@H](C)O)[C@@H](C)O)C(=O)N[C@@H](CCC(=O)O)C(=O)N[C@@H](CCC(=O)O)C(=O)N[C@@H](CCC(=O)O)C(=O)N[C@@H](C)C(=O)N[C@@H](C)C(=O)N[C@@H](CCCCN)C(=O)N[C@@H](CC(=O)O)C(=O)N[C@@H](Cc1ccccc1)C(=O)N[C@H](C(=O)N[C@@H](CCC(=O)O)C(=O)N[C@@H](Cc1c[nH]c2ccccc12)C(=O)N[C@@H](CC(C)C)C(=O)N[C@@H](CCCCN)C(=O)N[C@@H](C)C(=O)NCC(=O)NCC(=O)N1CCC[C@H]1C(=O)N[C@@H](CO)C(=O)N[C@@H](CO)C(=O)NCC(=O)N[C@@H](C)C(=O)N1CCC[C@H]1C(=O)N1CCC[C@H]1C(=O)N1CCC[C@H]1C(=O)N[C@@H](CO)C(N)=O)[C@@H](C)CC)C(=O)O [compound 17]	0.0017 nM	0.0931 nM
CCCCCCCCCCCCCCCC(=O)N[C@@H](CCC(=O)NCCCC[C@H](NC(=O)[C@H](CCC(N)=O)NC(=O)[C@H](CCCCN)NC(=O)[C@H](CO)NC(=O)[C@H](CC(C)C)NC(=O)[C@H](CC(=O)O)NC(=O)[C@H](CO)NC(=O)[C@@H](NC(=O)[C@H](Cc1ccccc1)NC(=O)[C@@H](NC(=O)CNC(=O)[C@H](CCC(N)=O)NC(=O)[C@@H](CO)NC(=O)[C@@H](N)Cc1c[nH]cn1)[C@@H](C)O)[C@@H](C)O)C(=O)N[C@@H](CCC(=O)O)C(=O)N[C@@H](CCC(=O)O)C(=O)N[C@@H](CCC(=O)O)C(=O)N[C@@H](C)C(=O)N[C@@H](C)C(=O)NC(C)(C)C(=O)N[C@@H](CC(=O)O)C(=O)N[C@@H](Cc1ccccc1)C(=O)N[C@H](C(=O)N[C@@H](CCC(=O)O)C(=O)N[C@@H](Cc1c[nH]c2ccccc12)C(=O)N[C@@H](CC(C)C)C(=O)N[C@@H](CCCCN)C(=O)N[C@@H](C)C(=O)NCC(=O)NCC(=O)N1CCC[C@H]1C(=O)N[C@@H](CO)C(=O)N[C@@H](CO)C(=O)NCC(=O)N[C@@H](C)C(=O)N1CCC[C@H]1C(=O)N1CCC[C@H]1C(=O)N1CCC[C@H]1C(=O)N[C@@H](CO)C(N)=O)[C@@H](C)CC)C(=O)O [compound 18]	0.0026 nM	0.152 nM
